Assay results published in patent US20150203498A1, “INHIBITORS OF PHOSPHODIESTERASE 10 ENZYME” (Janssen Pharmaceutica NV, priority 2012, published 2015).
Where “and” joins values, the source holds several entries; their conditions need not be identical. Identical values can stand only once. Each block holds one molecule with its values, some of them ahead of it.

Protein sequences, listed by entry. Tags and fused reporters are not part of them. Residues count along the entry.
UniProt Q9QYJ6, whole entry: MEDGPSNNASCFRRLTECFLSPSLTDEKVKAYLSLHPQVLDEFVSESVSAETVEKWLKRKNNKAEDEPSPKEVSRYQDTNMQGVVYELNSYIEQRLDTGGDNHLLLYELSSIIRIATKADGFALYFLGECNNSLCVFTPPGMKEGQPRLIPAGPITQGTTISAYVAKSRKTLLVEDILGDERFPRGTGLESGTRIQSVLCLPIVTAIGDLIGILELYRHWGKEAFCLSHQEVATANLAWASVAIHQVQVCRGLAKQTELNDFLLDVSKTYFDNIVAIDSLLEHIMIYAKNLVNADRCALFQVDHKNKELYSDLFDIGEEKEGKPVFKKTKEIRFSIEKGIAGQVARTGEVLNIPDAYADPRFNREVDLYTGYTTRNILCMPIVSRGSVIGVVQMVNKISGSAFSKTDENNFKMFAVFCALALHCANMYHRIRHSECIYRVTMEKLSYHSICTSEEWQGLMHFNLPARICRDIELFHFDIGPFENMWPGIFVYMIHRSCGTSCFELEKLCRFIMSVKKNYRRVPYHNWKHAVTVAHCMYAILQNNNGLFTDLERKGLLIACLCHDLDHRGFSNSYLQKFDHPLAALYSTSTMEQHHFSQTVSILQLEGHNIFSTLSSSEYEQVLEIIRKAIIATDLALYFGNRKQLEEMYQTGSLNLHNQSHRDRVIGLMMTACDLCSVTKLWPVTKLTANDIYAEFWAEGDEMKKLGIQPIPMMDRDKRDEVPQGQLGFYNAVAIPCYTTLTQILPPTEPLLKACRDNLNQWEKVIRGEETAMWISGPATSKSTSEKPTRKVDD
UniProt Q9Y233, 267-1055: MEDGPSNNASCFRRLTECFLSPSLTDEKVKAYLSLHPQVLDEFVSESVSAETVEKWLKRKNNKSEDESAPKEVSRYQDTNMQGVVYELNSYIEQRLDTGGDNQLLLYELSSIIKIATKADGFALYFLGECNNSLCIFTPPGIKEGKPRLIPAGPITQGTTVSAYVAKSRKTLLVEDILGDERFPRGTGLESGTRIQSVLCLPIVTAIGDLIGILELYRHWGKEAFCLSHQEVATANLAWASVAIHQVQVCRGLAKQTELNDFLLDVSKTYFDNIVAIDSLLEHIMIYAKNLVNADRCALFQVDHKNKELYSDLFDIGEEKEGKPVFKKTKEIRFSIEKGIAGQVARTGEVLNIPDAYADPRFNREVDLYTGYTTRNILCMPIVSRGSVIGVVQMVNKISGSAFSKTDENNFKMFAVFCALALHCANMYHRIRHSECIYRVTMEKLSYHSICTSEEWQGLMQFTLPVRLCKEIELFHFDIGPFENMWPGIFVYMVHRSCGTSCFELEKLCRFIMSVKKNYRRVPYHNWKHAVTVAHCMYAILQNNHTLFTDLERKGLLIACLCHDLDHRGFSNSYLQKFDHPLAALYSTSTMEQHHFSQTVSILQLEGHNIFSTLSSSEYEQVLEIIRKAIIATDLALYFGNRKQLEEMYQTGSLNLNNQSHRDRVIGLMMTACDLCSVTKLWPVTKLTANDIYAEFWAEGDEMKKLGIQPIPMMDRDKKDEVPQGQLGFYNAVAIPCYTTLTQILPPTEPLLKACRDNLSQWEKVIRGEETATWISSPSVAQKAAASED

Key:
[1] = test system: apomorphine-induced stereotypy; assay: Apomorphine-induced stereotypy in rats (APO); type: in vivo, rat; settings: apomorphine 1.0 mg/kg i.v., 1 hour pre-treatment with test compound, dose at which 50% of animals show the effect
rPDE10A2 = rPDE10A2 (Rattus norvegicus, UniProt Q9QYJ6); assay: In vitro assay PDE10A, rat recombinant enzyme (SPA, 3H-cAMP); type: biochemical; settings: -log IC50 expressed in mol/L; 60 nM cAMP
hPDE10A2 = hPDE10A2 (Homo sapiens, UniProt Q9Y233); assay: In vitro assay PDE10A, human recombinant enzyme (SPA, 3H-cAMP); type: biochemical; settings: -log IC50 expressed in mol/L; 60 nM cAMP
plasma proteins = assay: Plasma protein binding by equilibrium dialysis; settings: human plasma (males)
[2] = Pharmacokinetics of oral microdose in healthy subjects; settings: single oral dose of 100 μg, fasted

SMILES: COCCc1ccc(-c2c(C)nc3c(N4CCOCC4)nccn23)cn1
APO ED50 [1]: 1.0 mg/kg

PDE10A2 pIC50 - rat enzyme (rPDE10A2): 7.5
SMILES: Cc1nc2c(N3CCOCC3)ccnn2c1-c1ccc(C2CCOCC2)nc1

PDE10A2 pIC50 - human enzyme (hPDE10A2): 6.78 | PDE10A2 pIC50 - rat enzyme (rPDE10A2): 6.83
SMILES: Cc1nc2c(N3CCOCC3)nccn2c1-c1ccc(C2CCOCC2)nc1
APO ED50 [1]: 1.0 mg/kg

PDE10A2 pIC50 - human enzyme (hPDE10A2): 7.22 | Average percentage of free compound in plasma (plasma proteins; 0.1 μg/ml): 17.6% | Average percentage of free compound in plasma (plasma proteins; 1 μg/ml): 18.2% | Average percentage of free compound in plasma (plasma proteins; 2 μg/ml): 17.9% | Average percentage of free compound in plasma (plasma proteins; 5 μg/ml): 18.4% | tmax ([2]; Median (Min-Max)): 0.50 (0.50-0.75) h | AUClast ([2]; mean): 0.595 ng·h/mL | AUC∞ ([2]; mean): 0.665 ng·h/mL | Cmax ([2]; mean): 0.367 ng/mL | t1/2 ([2]; mean): 5.4 h | λz ([2]; mean): 0.158 h⁻¹ | CL/F ([2]; mean, listed as compound 1 of WO2011/051342): 183 ± 90.8 L/h and 183 L/h
SMILES: COCCc1ccc(-c2c(C)nc3c(N4CCOCC4)ccnn23)cn1
